Test results taken from PMC7801566 (Medicinal Chemistry Research, 2021).

Target: T1, Human neutrophil elastase (hNE) (Homo sapiens, UniProt P08246)
T1 sequence (P08246 30-247): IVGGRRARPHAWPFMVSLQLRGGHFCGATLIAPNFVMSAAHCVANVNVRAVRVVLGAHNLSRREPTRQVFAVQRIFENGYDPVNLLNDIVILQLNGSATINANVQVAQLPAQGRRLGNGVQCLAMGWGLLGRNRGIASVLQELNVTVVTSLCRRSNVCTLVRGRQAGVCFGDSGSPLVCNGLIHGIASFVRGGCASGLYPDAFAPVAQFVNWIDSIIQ
Assay: fluorogenic peptide substrate
Format: biochemical

Q: Which IC50 does the source give for `CC(C)(C)C(=O)Oc1ccc(S(=O)(=O)Nc2ccccc2C(=O)NCC(=O)O)cc1` [Sivelestat] here?
A: 0.033 µM
